Assay results reported in PMC12399007.

Columns and labels:
[1] = molecular target: F-actin (rabbit skeletal muscle actin, polymerized) (rabbit) (UniProt P68135); assay: co-sedimentation; high-speed centrifugation (HSC, 1 h, 40,000 rpm, 20 °C); 3.0 µM F-actin titrated with Tpm2 isoforms 0-3.0 µM, no fascin; 5 mM Tris-HCl, 100 mM NaCl, 2 mM MgCl2, 1 mM DTT, pH 7.5; Hill fit, apparent association constant Kapp
[2] = molecular target: fascin-bundled F-actin (3.0 µM F-actin pre-incubated with 0.3 µM fascin) (rabbit | mouse) (UniProt P68135); assay: co-sedimentation; high-speed centrifugation (HSC, 1 h, 40,000 rpm, 20 °C); 3.0 µM F-actin pre-incubated with 0.3 µM fascin for 20 min, titrated with Tpm2 isoforms 0-3.0 µM; 5 mM Tris, 100 mM NaCl, 2 mM MgCl2, 1 mM DTT, pH 7.5; Hill fit, apparent Kapp; fascin band in the pellets also quantified
[3] = molecular target: fascin-bundled F-actin (3.0 µM F-actin pre-incubated with 0.3 µM fascin) (rabbit | mouse) (UniProt P68135); assay: co-sedimentation; low-speed centrifugation (LSC, 30 min, 9,000 rpm; bundles only); 3.0 µM F-actin pre-incubated with 0.3 µM fascin for 20 min, titrated with Tpm2 isoforms 0-3.0 µM; 5 mM Tris, 100 mM NaCl, 2 mM MgCl2, 1 mM DTT, pH 7.5; Hill fit, apparent Kapp; fascin band in the pellets also quantified
[4] = molecular target: GST-tagged mouse fascin-1 immobilized on glutathione-agarose (mouse) (UniProt Q61553); assay: pull-down; GST-fascin-1 from E. coli lysate immobilized on glutathione-agarose and washed; incubated with 30 µM Tpm isoform overnight at 4 °C in 5 mM Tris-HCl pH 7.5, 100 mM NaCl, 2 mM MgCl2, 1 mM DTT; washed at 30 mM NaCl; eluted with PreScission Protease; SDS-PAGE
[5] = molecular target: F-actin saturated with Tpm2.3 (rabbit | human) (UniProt P68135); assay: co-sedimentation; high-speed centrifugation (HSC); 3.0 µM F-actin, alone or pre-incubated 15 min with 2.0 µM Tpm2 isoform, incubated with fascin 0-1.1 µM for 1 h at RT; 5 mM Tris-HCl, 100 mM NaCl, 2 mM MgCl2, 1 mM DTT, pH 7.5; Hill fit, apparent Kapp
[6] = molecular target: F-actin saturated with Tpm2.4 (rabbit | human) (UniProt P68135); assay: as above

Ka [1] | Ka [2] | Ka [3] | fold band intensity against Tpm2.1 and Tpm2.3 [4] | Ka [5] | Ka [6] | Substance
1.9e+06 M⁻¹ | 800000 M⁻¹ | 2e+06 M⁻¹ | – | – | – | Tpm2.3, recombinant N-terminally acetylated human tropomyosin isoform encoded by TPM2 (natural protein)
5.1e+06 M⁻¹ | 5.2e+06 M⁻¹ | 5.7e+06 M⁻¹ | 5 fold | – | – | Tpm2.4, recombinant N-terminally acetylated human tropomyosin isoform encoded by TPM2 (natural protein)
– | – | – | – | 9.4e+06 M⁻¹ | 6.7e+06 M⁻¹ | recombinant mouse fascin-1 with GPLGS N-terminal extension (GST tag cleaved) (natural protein)
– | 1.5e+06 M⁻¹ | 1.5e+06 M⁻¹ | – | – | – | Tpm2.1, recombinant N-terminally acetylated human tropomyosin isoform encoded by TPM2 (from UniProt P07951-2 1-284) (natural protein)
